Among the data in patent WO2009073805A2 are Kd, ELISA signal and fold of Kd against Adalimumab (Humira) values, retold here.

Experiment [1] addresses human TNF α (human) (UniProt P01375). In words: solution incubation of antibody with 800-25 pM TNF α, read by ELISA; Kd calculated directly at each antigen concentration.
The target is the same in experiment [2]. In words: ELISA on TNF α coated plate; pelB7 1 L culture, wash solution of the osmotic shock procedure, 1/10 dilution, duplicate (Table 4). Background: An ELISA detects its analyte on a solid surface through an enzyme-linked reagent.
For experiment [3] the target is unchanged. Kind of experiment: ELISA on TNF α coated plate; pelB7 1 L culture, medium, 1/10 dilution, duplicate (Table 4).
Experiment [4] has the same target. In words: ELISA on TNF α coated plate; unconcentrated culture medium, 1/10 dilution, duplicate (Table 2).
For experiment [5] the target is unchanged. Kind of experiment: solution incubation with TNF α, read by ELISA; Scatchard plot, 25 pM point neglected.
For experiment [6] the target is unchanged. Kind of experiment: ELISA on TNF α coated plate; pelB7 1 L culture, osmotic shock fraction, 1/10 dilution, duplicate (Table 4).
Experiment [7] has the same target. Kind of experiment: ELISA on TNF α coated plate; pelB7 1 L culture, wash solution of the osmotic shock procedure, 1/10 dilution (Table 4).
Experiment [8] has the same target. Kind of experiment: ELISA on TNF α coated plate; pelB7 1 L culture, osmotic shock fraction, 1/10 dilution (Table 4).
Experiment [9] shares this target. Kind of experiment: ELISA on TNF α coated plate; unconcentrated culture medium, 1/10 dilution (Table 2).
Experiment [10] shares this target. In words: ELISA on TNF α coated plate; pelB7 1 L culture, medium, 1/10 dilution (Table 4).
The target is the same in experiment [11]. Kind of experiment: solution incubation with TNF α, read by ELISA; ratio of the directly calculated Kd values.

On to “E. coli expressed anti-TNF antibody from construct pelB 7 (ecAnti-TNF) (antibody; other documents disagree on this pair)”, for which the Kd (commonly the equilibrium constant for the complex coming apart) in experiment [1] was 90 pM; in experiment [5] it was 120 pM. Further, the ELISA signal came to 0.148 in experiment [2]; 1.03 in [3]; 0.274 in experiment [4]; 0.266 in experiment [6]; 0.165 in experiment [7]; 0.276 in experiment [8]. In addition, the figures for the ELISA signal in experiment [9] and in experiment [10] were 0.315 and 1.03, respectively. Moreover, the fold of Kd against Adalimumab (Humira) in experiment [11] was 1.2 fold.
